Measured values: BindingDB's records for doi:10.1073/pnas.90.18.8547 (U. 109, 1993)

Sequences of proteins named here, by UniProt entry; tags and fusion partners are left off.
UniProt P32305, whole entry: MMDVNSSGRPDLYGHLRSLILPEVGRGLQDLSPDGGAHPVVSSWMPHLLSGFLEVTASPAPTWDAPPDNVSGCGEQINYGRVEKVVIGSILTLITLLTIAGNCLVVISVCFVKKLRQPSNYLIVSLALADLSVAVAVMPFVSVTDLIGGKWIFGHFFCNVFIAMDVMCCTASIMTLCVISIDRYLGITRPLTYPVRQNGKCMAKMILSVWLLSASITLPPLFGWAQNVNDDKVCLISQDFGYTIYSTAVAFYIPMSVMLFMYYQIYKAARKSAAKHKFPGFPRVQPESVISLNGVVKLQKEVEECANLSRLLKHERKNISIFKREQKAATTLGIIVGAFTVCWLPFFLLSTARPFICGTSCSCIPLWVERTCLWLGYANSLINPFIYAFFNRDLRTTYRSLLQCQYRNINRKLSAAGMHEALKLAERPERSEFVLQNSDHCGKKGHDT

Biological target: 5-hydroxytryptamine receptor 7 (Rattus norvegicus, UniProt P32305)

Work on `COc1ccc2[nH]cc(CCN)c2c1` [tryptamine, 5-Methoxy] yielded a pKi of 9.03.

pKi: −log10 of the molar value.
